The values that follow come from ChEMBL document CHEMBL1129573, “Structure-activity relationships in a series of substituted indolocarbazoles: topoisomerase I and protein kinase C inhibition and antitumoral and antimicrobial properties” (J Med Chem, 1996).

For test [1], the system named is DNA topoisomerase II (Bos taurus). The test can be described thus: Inhibitory activity towards Topoisomerase 2 from calf thymus.
For test [2], the system named is DNA topoisomerase I (Bos taurus). The test can be described thus: Inhibitory activity towards Topoisomerase 1 from calf thymus.

Values after ≈ are worked out from the molar mass of the structure shown. Some results are limits rather than exact numbers.

Regarding `O=CNN1C(=O)c2c(c3c4cccc(Cl)c4[nH]c3c3[nH]c4c(Cl)cccc4c23)C1=O`, the MIC in test [1] and in test [2] was over 10 µg/mL each time.
As to `NNC(=O)NN1C(=O)c2c(c3c4ccccc4[nH]c3c3[nH]c4ccccc4c23)C1=O`, the MIC in test [1] and in test [2] was over 10 µg/mL each time.
As to `NN1C(=O)c2c(c3c4ccccc4[nH]c3c3[nH]c4ccccc4c23)C1=O`, the MIC was over 10 µg/mL in test [1] and 10 µg/mL (≈ 29.4 µM) in test [2].
